Tests used:
[1] = test system: VEGF-induced migration of HUVECs; assay: VEGF-induced HUVEC migration assay; assay type: cell-based, human
[2] = target: T1, murine KDR-Fc (Mus musculus, UniProt P35918); assay: BIAcore kinetic analysis of binding to murine KDR-Fc
T1 construct: purchased R & D Systems (Minneapolis, Minn.) 443-KD-050

Amino acid sequences for entries named in this document (tags omitted). Chains listed by the source or under a name are the forms on record and can include a tag or linker. Residues count along the entry.
UniProt P35918, with tags, fused parts or gaps limits assumed: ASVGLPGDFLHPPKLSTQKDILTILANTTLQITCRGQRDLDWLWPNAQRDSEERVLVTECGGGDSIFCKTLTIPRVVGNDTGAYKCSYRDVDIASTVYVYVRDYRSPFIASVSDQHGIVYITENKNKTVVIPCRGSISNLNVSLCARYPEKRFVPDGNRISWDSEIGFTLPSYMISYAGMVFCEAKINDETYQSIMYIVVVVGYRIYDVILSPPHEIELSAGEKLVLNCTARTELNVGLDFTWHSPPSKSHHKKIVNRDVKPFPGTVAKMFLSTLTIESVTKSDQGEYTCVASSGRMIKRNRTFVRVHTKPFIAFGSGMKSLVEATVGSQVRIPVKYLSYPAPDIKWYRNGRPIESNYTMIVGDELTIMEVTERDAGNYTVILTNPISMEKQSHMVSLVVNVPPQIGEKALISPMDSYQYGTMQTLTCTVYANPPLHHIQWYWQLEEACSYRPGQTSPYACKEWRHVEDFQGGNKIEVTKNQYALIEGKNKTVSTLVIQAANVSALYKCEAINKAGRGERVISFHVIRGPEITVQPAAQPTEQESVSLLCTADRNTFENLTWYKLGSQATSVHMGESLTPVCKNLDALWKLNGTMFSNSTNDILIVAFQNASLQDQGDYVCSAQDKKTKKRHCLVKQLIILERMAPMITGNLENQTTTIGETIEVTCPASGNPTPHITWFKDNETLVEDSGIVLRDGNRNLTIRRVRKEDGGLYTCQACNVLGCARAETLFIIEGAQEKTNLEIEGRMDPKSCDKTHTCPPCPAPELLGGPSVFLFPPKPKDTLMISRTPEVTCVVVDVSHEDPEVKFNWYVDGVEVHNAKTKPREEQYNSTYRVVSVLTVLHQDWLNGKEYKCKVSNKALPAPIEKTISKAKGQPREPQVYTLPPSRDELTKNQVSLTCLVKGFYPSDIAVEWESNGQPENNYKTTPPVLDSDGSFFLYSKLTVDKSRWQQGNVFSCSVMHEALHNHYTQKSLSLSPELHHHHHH
UniProt P35968, with tags, fused parts or gaps limits assumed: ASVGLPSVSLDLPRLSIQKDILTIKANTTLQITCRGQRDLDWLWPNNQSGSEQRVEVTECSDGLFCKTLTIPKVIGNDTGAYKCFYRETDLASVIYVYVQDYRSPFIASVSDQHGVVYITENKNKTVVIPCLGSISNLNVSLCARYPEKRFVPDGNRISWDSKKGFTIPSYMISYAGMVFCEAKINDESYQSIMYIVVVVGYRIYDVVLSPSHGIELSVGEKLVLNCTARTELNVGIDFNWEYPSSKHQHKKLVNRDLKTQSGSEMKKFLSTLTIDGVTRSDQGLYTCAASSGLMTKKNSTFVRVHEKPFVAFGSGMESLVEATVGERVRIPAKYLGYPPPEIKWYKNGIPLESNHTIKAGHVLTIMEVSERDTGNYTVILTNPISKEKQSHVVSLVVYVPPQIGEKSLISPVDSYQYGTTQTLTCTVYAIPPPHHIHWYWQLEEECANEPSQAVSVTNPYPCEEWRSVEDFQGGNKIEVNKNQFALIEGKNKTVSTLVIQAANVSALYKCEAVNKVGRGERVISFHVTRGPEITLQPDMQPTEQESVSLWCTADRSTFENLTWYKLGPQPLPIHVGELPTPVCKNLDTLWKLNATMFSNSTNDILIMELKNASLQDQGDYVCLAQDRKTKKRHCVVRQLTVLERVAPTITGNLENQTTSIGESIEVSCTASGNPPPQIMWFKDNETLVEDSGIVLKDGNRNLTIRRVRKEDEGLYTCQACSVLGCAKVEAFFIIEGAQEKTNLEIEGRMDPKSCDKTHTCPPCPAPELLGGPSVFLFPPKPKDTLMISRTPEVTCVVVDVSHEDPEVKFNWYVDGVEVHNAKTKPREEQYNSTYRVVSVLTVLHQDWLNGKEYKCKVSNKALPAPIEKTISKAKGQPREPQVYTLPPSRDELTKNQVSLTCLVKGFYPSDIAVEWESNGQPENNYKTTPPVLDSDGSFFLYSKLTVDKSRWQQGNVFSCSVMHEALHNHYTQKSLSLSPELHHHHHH
UniProt P35968, 20-1356: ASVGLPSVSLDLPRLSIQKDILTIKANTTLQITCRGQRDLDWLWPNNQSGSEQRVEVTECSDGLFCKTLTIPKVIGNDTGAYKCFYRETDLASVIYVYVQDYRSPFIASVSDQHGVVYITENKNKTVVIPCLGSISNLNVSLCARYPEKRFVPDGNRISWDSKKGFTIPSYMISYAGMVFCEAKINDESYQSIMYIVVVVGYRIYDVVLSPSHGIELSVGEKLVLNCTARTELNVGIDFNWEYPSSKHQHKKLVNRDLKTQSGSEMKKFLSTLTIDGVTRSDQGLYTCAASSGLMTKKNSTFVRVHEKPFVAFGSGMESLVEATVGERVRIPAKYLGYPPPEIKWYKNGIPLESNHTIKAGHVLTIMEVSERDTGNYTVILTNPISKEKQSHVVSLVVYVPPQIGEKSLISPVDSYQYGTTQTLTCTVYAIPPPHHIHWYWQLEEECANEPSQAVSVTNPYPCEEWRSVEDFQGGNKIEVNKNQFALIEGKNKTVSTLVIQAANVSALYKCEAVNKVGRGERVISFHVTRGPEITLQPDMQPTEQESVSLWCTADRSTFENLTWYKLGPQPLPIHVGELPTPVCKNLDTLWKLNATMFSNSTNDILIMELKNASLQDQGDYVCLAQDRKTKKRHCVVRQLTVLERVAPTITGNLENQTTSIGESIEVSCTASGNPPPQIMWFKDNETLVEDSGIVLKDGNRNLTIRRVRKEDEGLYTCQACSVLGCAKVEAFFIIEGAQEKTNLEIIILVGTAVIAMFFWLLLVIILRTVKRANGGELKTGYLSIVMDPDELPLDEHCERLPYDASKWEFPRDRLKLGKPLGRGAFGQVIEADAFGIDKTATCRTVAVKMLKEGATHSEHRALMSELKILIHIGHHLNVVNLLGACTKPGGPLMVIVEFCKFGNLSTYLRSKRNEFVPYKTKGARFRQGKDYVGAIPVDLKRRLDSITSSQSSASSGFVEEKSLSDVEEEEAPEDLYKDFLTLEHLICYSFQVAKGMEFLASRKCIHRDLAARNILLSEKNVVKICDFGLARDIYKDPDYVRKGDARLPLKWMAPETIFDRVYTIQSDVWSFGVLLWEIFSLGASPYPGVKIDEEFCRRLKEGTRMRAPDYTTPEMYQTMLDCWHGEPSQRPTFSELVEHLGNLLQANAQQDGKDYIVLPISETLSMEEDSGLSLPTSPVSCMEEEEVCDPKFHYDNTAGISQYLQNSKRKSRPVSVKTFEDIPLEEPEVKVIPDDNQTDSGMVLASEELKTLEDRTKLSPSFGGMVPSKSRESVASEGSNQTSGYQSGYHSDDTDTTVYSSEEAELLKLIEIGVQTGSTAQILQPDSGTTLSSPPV

[3] = target: KDR-Fc (Homo sapiens, UniProt P35968); assay type: binding; settings: monodentate peptide; read-out: KD measured by FP against the KDRFc construct
[4] = target: KDR (Homo sapiens, UniProt P35968); assay: Inhibition of VEGF-induced KDR receptor activation (phosphorylation) in HUVECs; assay type: cell-based; set-up: host or cells: HUVEC; settings: at (up to) 100 nM
[5] = 5 days at room temperature
[6] = vs. 2700RU murine KDR-Fc surface
[7] = vs. 5000RU murine KDR-Fc surface

With “Ac-AQDWYYDEILSMADQLRHAFLSGGGGGK (SEQ ID NO:356) {Ac-AQDWYYDEILSMADQLRHAFLSGGGGGK (SEQ ID NO:356) (J-Glut-)-NH2}K(Biotin-JJ)-NH2 [D8]” the “Effect on VEGF-induced migration” value ([1]; 800 nM) was “had no significant effect”.

In the case of “Ac-AGPTWCEDDWYYCWLFGTGGGK (SEQ ID NO:277)[(Biotin-JJK-(O═)C(CH2)3C(═O)-JJ-NH(CH2)4—(S)—CH((Ac-VCWEDSWGGEVCFRYDPGGGK (SEQ ID NO:337))-NH)CONH2]—NH2 [D1]”, the “KD1 (calculated KD based on kd1/ka1)” value [2, 6] is reported as 0.0175 µM, the “KD2 (calculated KD based on kd2/ka1, avidity factor)” value [2, 6] is reported as 0.000751 µM and the “KD1 (calculated KD based on kd1/ka1)” value [2, 7] is reported as 0.016 µM. For the same substance, the “KD2 (calculated KD based on kd2/ka1, avidity factor)” value [2, 7] was 0.000825 µM.

With “AQDWYYDEILSMADQLRHAFLSGGGK [SEQ ID NO:310]” the Kd [3] was 0.051 µM.

In the case of “Ac-VC WEDS WGGEVCFRYDPGGGK (SEQ ID NO:337)[(Biotin-JJK-(O═)C(CH2)3C(═O)-JJ-NH(CH2)4—(S)—CH((Ac-VCWEDSWGGEVCFRYDPGGGK (SEQ ID NO:337))-NH)CONH2]—NH2 [D3]”, the “Effect on VEGF-induced phosphorylation of KDR” value [4] is reported as “had no effect”.

With “Ac-AGPTWCEDDWYYCWLFGTGGGK (SEQ ID NO:277) [(Biotin-JJK-(O═)C(CH2)3C(═O)-JJ-NH(CH2)4—(S)—CH((Ac-AGPTWCEDDWYYCWLFGTJK (SEQ ID NO:493))-NH)CONH2]—NH2 [D2]” the “Effect on VEGF-induced phosphorylation of KDR” value [4] was “had no effect”.

With “Ac-AGPTWCEDDWYYCWLFGTGGGK{Ac-VCWEDSWGGEVCFRYDPGGGK[-Adoa-Adoa-Glut-K(DSPE-PEG2000-NH-Glut)]-NH2 cyclic (2-12) disulfide}-NH2 cyclic (6-13) disulfide [(21)]” the “Formation of lyso-compound on storage” value [5] was “no lyso-compound formed after 5 days at room temperature”.

In the case of “Ac-AGPTWCEDDWYYCWLFGTGGGK (SEQ ID NO:277){Ac-VCWEDSWGGEVCFRYDPGGGK (SEQ ID NO:337)[S(GalNAc-alpha-D)-G-S(GalNAc-alpha-D)-Glut-S(GalNAc-alpha-D)-G-S(GalNAc-alpha-D)-NH(CH2)4—(S)—CH(Biotin-JJNH—)C(═O)—]—NH2}—NH2 [D27]”, the “Potency relative to D25 in the migration assay” value [1] is reported as “ten-fold more potent”.

Source: patent publication US9408926B2, “KDR and VEGF/KDR binding peptides and their use in diagnosis and therapy” (Bracco Suisse S.A., priority 2002, dated 2016)
